US11771779B2, “Non-metallic magnetic resonance contrast agent” (HADASIT MEDICAL RESEARCH SERVICES & DEVELOPMENT LIMITED, priority 2018, dated 2023)

Test: T1 of hyperpolarized ^15N sites bound to labile protons upon dissolution in H2O and D2O, 5.8 T
Type: physicochemical

T1 upon dissolution in D2O (D2O, ≈37° C. (35-40° C.), 5.8 T, n=2): 150 ± 20 s
T1 upon dissolution in H2O (H2O, ≈37° C. (35-40° C.), 5.8 T, n=2): 46 ± 4 s
T1 prolongation D2O versus H2O (deuteration of labile protons): 3.3 fold
Substance: [^15N]ammonium chloride
